Experimental findings from patent US10617690B2 (priority 2015, dated 2020) are described below.

The assay addresses T1, JAK3 (Homo sapiens, UniProt P52333).
T1 construct: purchased Life technology
T1 sequence (P52333 1-1124): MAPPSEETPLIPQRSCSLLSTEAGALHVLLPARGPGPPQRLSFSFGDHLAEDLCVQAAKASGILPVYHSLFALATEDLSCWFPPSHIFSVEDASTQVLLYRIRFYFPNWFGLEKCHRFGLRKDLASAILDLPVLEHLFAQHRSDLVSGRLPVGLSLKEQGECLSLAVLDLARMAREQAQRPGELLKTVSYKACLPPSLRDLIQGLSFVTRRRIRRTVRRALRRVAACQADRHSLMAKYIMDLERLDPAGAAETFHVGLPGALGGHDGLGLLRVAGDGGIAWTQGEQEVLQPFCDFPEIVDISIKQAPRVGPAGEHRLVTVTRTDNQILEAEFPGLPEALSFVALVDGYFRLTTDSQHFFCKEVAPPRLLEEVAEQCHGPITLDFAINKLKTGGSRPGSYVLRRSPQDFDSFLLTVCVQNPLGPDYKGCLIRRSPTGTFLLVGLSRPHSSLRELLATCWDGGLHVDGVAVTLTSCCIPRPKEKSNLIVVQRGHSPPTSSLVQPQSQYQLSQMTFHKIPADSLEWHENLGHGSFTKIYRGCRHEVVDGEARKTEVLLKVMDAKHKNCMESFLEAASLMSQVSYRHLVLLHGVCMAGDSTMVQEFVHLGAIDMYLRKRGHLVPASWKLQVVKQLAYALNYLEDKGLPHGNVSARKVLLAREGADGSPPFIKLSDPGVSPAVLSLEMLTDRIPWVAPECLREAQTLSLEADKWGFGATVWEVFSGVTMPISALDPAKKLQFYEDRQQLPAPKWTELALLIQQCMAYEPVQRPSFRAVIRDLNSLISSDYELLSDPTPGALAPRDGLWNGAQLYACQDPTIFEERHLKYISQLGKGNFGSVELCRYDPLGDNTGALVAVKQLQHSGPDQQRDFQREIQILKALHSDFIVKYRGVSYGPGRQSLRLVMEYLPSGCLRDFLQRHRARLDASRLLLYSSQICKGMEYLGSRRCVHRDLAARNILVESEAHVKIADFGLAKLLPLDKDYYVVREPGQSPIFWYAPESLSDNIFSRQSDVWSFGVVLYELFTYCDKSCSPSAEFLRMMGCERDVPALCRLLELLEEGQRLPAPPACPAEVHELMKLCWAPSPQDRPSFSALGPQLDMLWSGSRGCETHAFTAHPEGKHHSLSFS
The assay can be described thus: In vitro activity test of JAK3 kinase (LANCE Ultra TR-FRET).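 Note: recombinant human JAK3 phosphorylating ULight-JAK-1(Tyr1023) peptide at 4 µM ATP, with 1% DMSO, detected by Eu-anti-phosphotyrosine TR-FRET on Envision and converted to percent inhibition.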 The class given is biochemical. Conditions: 4 uM ATP, 90 min. On the technique in general: TR-FRET usually uses a lanthanide donor and a delayed reading to cut background.

In general, IC50 refers to the point on the concentration scale where inhibition reaches its midpoint. Read a high IC50 as a need for much substance. “N-(cyanomethyl)-1-(methyl(1H-pyrrole[2,3-b]pyridyl-4-)amino)piperidyl-3-formamide [WX14]” displayed an IC50 of 100 to 1000 nM.
